In the library only some 4.2% were active in any assay of this set; here they are far more common.
NALP1 yeast inh = blocks the NALP1 inflammasome reconstituted in yeast | S. cerevisiae NALP1/ASC/caspase-1 growth, X-gal OD620, 72 h | inhibition, % at 10 µM | 0.61% of 280,000 active; in the data active = inhibition mostly above about 24%, no sharp cut-off; inactive = mostly below about 32%
ALR H2O2 inh = inhibitors of human ALR sulfhydryl oxidase, primary screen, biochemical, H2O2 detection, HRP-luminol luminescence, single point; FAD-linked sulfhydryl oxidase ALR (Homo sapiens), P55789; purified ALR, DTT oxidation; inhibition, % (test concentration not listed); 290,000 tested, 3.8% active; AID 485317, 2010;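 active = mean and each replicate at 75% or more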;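 note: stock transfer was 7.5 nL into about 7.5 µL; 0% = neutral wells and 100% = wells with inactivated enzyme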
MC4R ag barr = human MC4R agonism via beta-arrestin; P32245; U2OS MC4R beta-arrestin complementation, luminescence; percent of melanotan II response, DMSO zero; 0.98% of 360,000 active; AID 540308; activation, % at 8.9 µM;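 active = activation above a per-plate cutoff, the mean activation of sample wells on that plate plus 3 SD, cut at about 8% in these data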
UUG fidelity = modulators of start codon recognition fidelity in yeast; AID 602363; activity score, % at 18.7 µM; S. cerevisiae UUG-firefly luciferase reporter, luminescence/redox ratio; actives 0.13% (n = 350,000);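 active = replicate mean at a twofold rise or more, about +100% in these data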;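 note: firefly luciferase made from a UUG start codon reports start codon fidelity; reporter light over untreated wells divided by growth signal over untreated wells; some hits fall short of that in this replicate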
MC4R antagonist = antagonists of human melanocortin 4 receptor (MC4R); P32245; MC4R-expressing cells, MTII-stimulated cAMP, LANCE TR-FRET; 0.48% of 360,000 active; AID 540295; inhibition, % at 6.5 µM;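 active = inhibition above its plate's cutoff, the mean of tested wells on that plate plus 3 SD, cut at about 29% in these data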
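System – human MC4R-expressing U2OS cells · Also added – Melanotan II · Dosing – one concentration, 6.5 µM nominal · Timing – 30-min compound, 1-h challenge, 1-h detection, room temperature · Measured by – Eu-cAMP/anti-cAMP TR-FRET, emission 671 nm · Replicates – singlicate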
HDAC3 inhib = inhibitors of human histone deacetylase 3 | O15379 | recombinant HDAC3, fluorogenic peptide/trypsin coupled, fluorescence | inhibition, % at 8.3 µM | 0.15% of 320,000 active | AID 2718; in the data active = inhibition above about 26%, passing the limit was not always enough; inconclusive = no clear call, values can overlap the other calls
Hits are given with their value; - = inactive; ? = inconclusive; . = no result.

SMILES	NALP1 yeast inh	ALR H2O2 inh	MC4R ag barr	UUG fidelity	MC4R antagonist	HDAC3 inhib
COc1cccc(C(=O)Nc2ccc(NC(C)=O)cc2)c1	-	-	-	-	-	-
COc1ccc(-c2cccc(C(=O)Nc3ccc(C)cc3)c2)cc1	-	-	8.6	-	-	-
COc1cccc(C(=O)Nc2cc(Cl)c(O)c(Cl)c2)c1	-	89	-	.	-	-
COc1ccc(NC(=O)c2ccc3ccccc3c2)cc1	-	-	8.8	-	-	-
O=C(Nc1n[nH]c(=S)s1)c1ccc2ccccc2c1	-	98	-	-	-	-
COc1ccc(C(=O)NNC(=O)c2ccc3ccccc3c2)cc1	.	.	-	-	-	.
O=C(Nc1nccs1)c1ccc2ccccc2c1	-	-	-	-	-	-
Cc1noc(C)c1NC(=O)N(C)C[C@@H]1OCCCC[C@H](C)Oc2ccc(NC(=O)Nc3ccc(F)cc3)cc2C(=O)N([C@@H](C)CO)C[C@H]1C	.	.	.	-	.	.
COc1ccccc1CNC(=O)C[C@@H]1CC[C@@H](NC(=O)CN(C)C)[C@H](CO)O1	.	.	.	-	.	.
COc1ccc(NC(NC(=O)c2ccc(OC)cc2)C(Cl)(Cl)Cl)cc1 (stereo unspecified)	-	98	-	-	-	-
CO[C@H]1CN(C)C(=O)c2cc(NS(=O)(=O)c3ccc(Cl)cc3)ccc2OC[C@H](C)N(C)C[C@H]1C	.	.	.	-	.	.
Cc1ccc(O)c(CNc2cccc(C)n2)c1	-	.	-	-	-	.
CN(C)c1ccc(CNc2ccccn2)cc1	-	98	-	-	-	-
Cc1cccc(NCc2ccc(N(C)C)cc2)n1	-	82	-	-	-	-
Cc1ccc(-n2c(SCC(=O)O)nc3sc4c(c3c2=O)CC(C)(C)SC4)cc1	.	.	-	-	-	.
Cc1ccc(-n2c(SCC(=O)O)nc3sc4c(c3c2=O)C(C)CCC4)cc1 (stereo unspecified)	-	98	-	-	-	-
CN(C)C(=O)C[C@H]1C=C[C@H](NC(=O)NC2CCCCC2)[C@H](CO)O1	.	.	.	-	.	.
CC1CN(Cc2ccccc2)C(=O)NC1=O (stereo unspecified)	.	.	-	-	-	.
CC1CN(c2ccccc2)NC1=O (stereo unspecified)	-	99	-	.	-	-
O=C1C[C@@H](c2ccc(O)cc2)Oc2cc(O)cc(O)c21	-	100	-	-	-	-
COc1cc(C2CC(=O)c3c(O)cc(O)cc3O2)ccc1O (stereo unspecified)	-	?	-	-	-	-
COc1ccc2[nH]c3c(=O)n(CCCCC(=O)NCCN4CCCC4)c(=S)[nH]c3c2c1	-	?	-	-	-	30
O=C(Cn1ccnc1)c1ccc(O)c(O)c1	.	90	-	-	-	-
O=C(O)c1ccc(OCCn2ccnc2)cc1	-	-	-	-	-	-
COc1ccc(O)c(/C=N/c2nc3ccccc3n2C)c1	33	.	-	-	-	-
SMILES	NALP1 yeast inh	ALR H2O2 inh	MC4R ag barr	UUG fidelity	MC4R antagonist	HDAC3 inhib
O=C(Oc1cccc2cccnc12)c1ccco1	-	-	-	-	-	-
O=C(Cc1ccc(Cl)cc1)Oc1cccc2cccnc12	78	-	-	-	-	-
COc1ccccc1Nc1nc(C)cs1	-	99	-	-	-	-
C[C@@H]1CCCCO[C@@H](CN(C)CC2CCCCC2)[C@H](C)CN([C@@H](C)CO)C(=O)c2cc(NS(=O)(=O)c3ccc(F)cc3)ccc2O1	.	.	.	-	.	.
CC(=O)NC12CC3CC(C1)CC(C(=O)Nc1nc4ccc(F)cc4s1)(C3)C2	-	86	-	-	-	-
CCC(CC)c1nnc(NC(=O)C23CC4CC(CC(NC(C)=O)(C4)C2)C3)s1	-	-	-	-	-	-
Cc1ccc(NC(=O)C(Cc2ccccc2)NC(=O)OCc2ccccc2)cc1C (stereo unspecified)	-	-	8.8	.	-	-
Cc1cccc(NC(=O)[C@H](Cc2ccccc2)NC(=O)OCc2ccccc2)c1	-	-	-	.	-	-
C[C@@H]1CN([C@@H](C)CO)S(=O)(=O)c2ccc(/C=C/c3ccccc3)cc2O[C@@H]1CN(C)C(=O)CN1CCOCC1	.	.	.	-	.	.
Nc1cc2ccncc2c2ccccc12	-	98	-	-	-	.
N#Cc1cc2ccncc2c2ccccc12	.	.	-	-	-	.
CC(=O)NC1C(=O)N=C(SC(C)C(=O)Nc2cccc(Cl)c2)NC1=O (stereo unspecified)	-	98	-	.	-	-
CSc1nc(O)c(C(c2ccc(C)cc2)c2c(O)nc(SC)[nH]c2=O)c(=O)[nH]1	-	89	-	-	-	-
CNC[C@H]1Oc2ccc(NC(=O)Nc3ccc4c(c3)OCO4)cc2CC(=O)N([C@@H](C)CO)C[C@@H]1C	.	.	.	-	.	.
CC(=O)Nc1ccc(S(=O)(=O)NNC(=O)COc2cc(C)ccc2C(C)C)cc1	-	99	-	-	-	-
N#CC1=C(N)NC(SCC(=O)Nc2ccccc2)=C(C#N)C12CCCC2	-	95	-	-	-	-
CCOC(=O)C1=C(SCC(=O)Nc2ccccc2)NC(=O)C(C#N)C12CCCCC2 (stereo unspecified)	-	89	-	-	-	-
COc1ccccc1S(=O)(=O)N[C@H]1CC[C@@H](CCNC(=O)C2CCCC2)O[C@H]1CO	.	.	.	-	.	.
C[C@@H]1CN([C@H](C)CO)C(=O)c2cc(NC(=O)CCC(F)(F)F)ccc2O[C@@H](C)CCCCO[C@@H]1CN(C)S(=O)(=O)c1cccs1	.	.	.	-	.	.
CSc1ccc(CNc2ccccn2)cc1	-	-	-	-	-	-
CSc1ccc(CNc2ccccc2)cc1	-	90	.	.	.	-
CO[C@H]1CN(C)C(=O)c2ccc(NC(=O)c3ccccc3F)cc2OC[C@@H](C)N(C(C)=O)C[C@@H]1C	.	.	.	-	.	.
CC(C)(C)c1ccc(Oc2ccc(NC(=O)CCCC(=O)O)cn2)cc1	-	91	-	-	-	-
COc1ccccc1C#Cc1ccc([C@@H]2[C@@H](CO)N3CCCCN(S(C)(=O)=O)C[C@H]23)cc1	.	.	.	-	.	.
S=c1[nH]nc(Cc2sc(-c3ccccc3)nc2-c2ccccc2)o1	-	98	-	-	-	-
SMILES	NALP1 yeast inh	ALR H2O2 inh	MC4R ag barr	UUG fidelity	MC4R antagonist	HDAC3 inhib
S=c1[nH]nc(Cc2c[nH]c3ccccc23)o1	-	-	-	-	-	-
CCSCc1nnc(SCC(=O)Nc2cccc(SC)c2)n1C	-	98	-	-	-	-
C/C(CCC1CC(C)OC1=O)=N/Nc1nc(-c2ccccc2)cs1 (stereo unspecified)	-	98	-	.	-	-
C/C(=N\Nc1nc(C(C)(C)C)cs1)c1ccccc1	.	98	-	-	-	-
CC(C)=NNc1nc(-c2ccc(N3C(=O)CCC3=O)cc2)cs1	-	99	-	.	-	-
CC(C)=NNc1nc(-c2ccccc2)cs1	-	97	-	.	-	-
O=C(Nc1nc(-c2ccc(F)cc2)cs1)c1cccc(N2C(=O)CCC2=O)c1	-	-	-	-	-	-
Cc1ccc(S(=O)(=O)N[C@@H]2CC[C@H](CCNC(=O)C3CCC3)O[C@@H]2CO)cc1	.	.	.	-	.	.
